Earlier results on one compound are cited in US10172581B2, “Methods of assessing tumor growth” (Dana-Farber Cancer Institute, Inc., priority 2013, dated 2019).

The structures appear in SMILES notation.

The data set relates to ALK-positive NSCLC. Particulars: ALK-positive NSCLC patients, trials; cited from earlier work.

Consider `C[C@@H](Oc1cc(-c2cnn(C3CCNCC3)c2)cnc1N)c1c(Cl)ccc(F)c1Cl` [crizotinib], for which the “overall disease control rate” value is roughly 90%, the progression-free survival is recorded as 10 months and the response rate entry is recorded as “up to 61%”.
